Target: DRB1-0101-pp65 (human) (UniProt P01903)
Assay: ELISA

pp65
Kd: 23.6 nM

From patent US20240255522A1
